Data published in article doi:10.1101/2023.01.16.524197 (bioRxiv, 2023).

Target: T1, PD-L2-His-biotin (human, UniProt Q9BQ51 20-220, biotin)
T1 construct: PD-L2 with His tag, biotinylated; source: bought: Sino Biological
T1 sequence (looked up): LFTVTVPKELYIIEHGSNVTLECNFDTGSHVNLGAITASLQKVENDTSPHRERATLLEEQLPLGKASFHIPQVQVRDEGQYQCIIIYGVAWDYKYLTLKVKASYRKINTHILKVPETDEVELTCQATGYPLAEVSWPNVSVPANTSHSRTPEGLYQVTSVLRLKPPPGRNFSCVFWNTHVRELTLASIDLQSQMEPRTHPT
Assay: ELISA; competition: PD-1-mFc coated at 2 μg/mL; 1 μg/mL PD-L2-His-biotin with 0.003-18 μg/mL antibody, 2 h; streptavidin/HRP
Conditions: both partners purified

B1: PD-1-mFc (Fc fusion, human, UniProt Q15116 25-170, looked up)
chain: LDSPDRPWNPPTFSPALLVVTEGDNATFTCSFSNTSESFVLNWYRMSPSNQTDKLAAFPEDRSQPGQDCRFRVTQLPNGRDFHMSVVRARRNDSGTYLCGAISLAPKAQIKESLRAELRVTERRAEVPTAHPSPSPRPAGQFQTLV
notes: also called PD-1-Fc; human PD-1-mFc; source: bought: Sino Biological
B1: binds.
